Experimental data taken from patent EP4847505A1, “4-METHYLSULFONYL-SUBSTITUTED PIPERIDINE UREA COMPOUNDS” (dated 2026).

By UniProt entry, the sequences of proteins in these tests, tags left out.
UniProt Q9BE39, whole entry: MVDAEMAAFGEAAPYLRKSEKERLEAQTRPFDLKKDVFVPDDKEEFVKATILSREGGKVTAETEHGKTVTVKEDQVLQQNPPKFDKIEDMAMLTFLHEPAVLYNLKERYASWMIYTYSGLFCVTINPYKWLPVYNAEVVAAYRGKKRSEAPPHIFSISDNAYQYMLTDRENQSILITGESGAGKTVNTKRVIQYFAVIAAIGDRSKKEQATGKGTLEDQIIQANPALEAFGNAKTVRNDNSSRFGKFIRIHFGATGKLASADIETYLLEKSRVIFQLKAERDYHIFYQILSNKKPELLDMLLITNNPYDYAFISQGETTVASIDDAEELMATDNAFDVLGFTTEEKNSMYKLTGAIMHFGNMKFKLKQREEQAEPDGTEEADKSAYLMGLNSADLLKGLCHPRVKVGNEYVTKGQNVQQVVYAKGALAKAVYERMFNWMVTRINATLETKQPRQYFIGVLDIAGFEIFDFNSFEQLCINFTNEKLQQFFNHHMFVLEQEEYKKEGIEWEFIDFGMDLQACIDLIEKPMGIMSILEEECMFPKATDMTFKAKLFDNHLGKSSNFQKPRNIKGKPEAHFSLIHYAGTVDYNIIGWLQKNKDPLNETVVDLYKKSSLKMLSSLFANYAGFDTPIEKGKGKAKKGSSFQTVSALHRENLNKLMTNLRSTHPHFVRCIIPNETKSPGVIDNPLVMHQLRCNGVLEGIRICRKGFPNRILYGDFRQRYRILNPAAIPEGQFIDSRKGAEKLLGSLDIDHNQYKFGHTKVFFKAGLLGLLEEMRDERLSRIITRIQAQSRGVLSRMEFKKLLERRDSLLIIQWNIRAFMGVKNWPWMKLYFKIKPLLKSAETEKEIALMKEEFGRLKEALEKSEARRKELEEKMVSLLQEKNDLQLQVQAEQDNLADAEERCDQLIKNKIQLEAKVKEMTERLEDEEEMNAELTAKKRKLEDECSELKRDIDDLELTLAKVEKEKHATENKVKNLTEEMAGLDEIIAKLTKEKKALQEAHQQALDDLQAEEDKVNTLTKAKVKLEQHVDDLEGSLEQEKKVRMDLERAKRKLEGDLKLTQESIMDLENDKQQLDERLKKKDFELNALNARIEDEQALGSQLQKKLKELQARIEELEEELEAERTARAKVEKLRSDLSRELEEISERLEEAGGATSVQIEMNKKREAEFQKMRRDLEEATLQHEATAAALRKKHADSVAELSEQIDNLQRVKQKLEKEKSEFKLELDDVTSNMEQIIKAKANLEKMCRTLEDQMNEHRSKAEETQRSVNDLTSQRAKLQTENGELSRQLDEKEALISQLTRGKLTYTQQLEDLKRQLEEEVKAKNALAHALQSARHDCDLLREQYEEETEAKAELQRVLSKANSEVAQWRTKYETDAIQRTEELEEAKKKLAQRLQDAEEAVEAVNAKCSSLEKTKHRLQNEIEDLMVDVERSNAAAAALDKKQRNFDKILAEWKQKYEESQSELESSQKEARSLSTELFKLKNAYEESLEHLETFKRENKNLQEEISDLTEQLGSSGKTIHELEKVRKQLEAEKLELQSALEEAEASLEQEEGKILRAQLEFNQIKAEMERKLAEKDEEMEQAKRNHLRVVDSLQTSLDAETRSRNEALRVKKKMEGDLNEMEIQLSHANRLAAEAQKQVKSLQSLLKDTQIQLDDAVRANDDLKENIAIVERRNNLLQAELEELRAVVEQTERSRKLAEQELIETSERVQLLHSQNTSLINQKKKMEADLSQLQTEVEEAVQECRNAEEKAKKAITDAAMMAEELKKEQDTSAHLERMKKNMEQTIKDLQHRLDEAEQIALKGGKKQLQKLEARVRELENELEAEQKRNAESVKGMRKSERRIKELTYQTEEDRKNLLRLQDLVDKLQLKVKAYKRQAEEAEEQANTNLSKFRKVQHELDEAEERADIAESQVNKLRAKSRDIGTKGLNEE
UniProt P85100, whole entry partner: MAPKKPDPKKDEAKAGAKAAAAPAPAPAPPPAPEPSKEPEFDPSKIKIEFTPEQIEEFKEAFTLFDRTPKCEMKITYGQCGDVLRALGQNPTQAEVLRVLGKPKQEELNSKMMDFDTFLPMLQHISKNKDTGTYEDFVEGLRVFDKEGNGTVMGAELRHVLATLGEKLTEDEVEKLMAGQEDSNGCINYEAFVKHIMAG
UniProt Q3SZE5, whole entry partner: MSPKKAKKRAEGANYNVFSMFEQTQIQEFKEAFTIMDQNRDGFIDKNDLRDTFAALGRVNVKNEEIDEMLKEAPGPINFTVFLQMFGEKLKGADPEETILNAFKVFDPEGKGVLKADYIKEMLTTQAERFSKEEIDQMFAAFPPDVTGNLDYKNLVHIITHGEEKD

molecular target: bovine cardiac myosin (Bos taurus, UniProt Q9BE39); assay: Myosin activation assay (PK/LDH-coupled ATPase, bovine cardiac myofibrils); settings: concentration at which the total response is increased by twenty percent

Row | Compound | Myosin Activation (AC20)
1 | Cc1ccc(NC(=O)N2CCC(C(C)(C)S(=O)(=O)c3cc(C(F)(F)F)nn3C)CC2)cn1 | ++ (++ represents myosin activation value AC20 from 2 µM - 5 µM)
2 | Cn1cc(S(=O)(=O)[C@@](C)(F)C2CCN(C(=O)Nc3ccc(C(F)(F)F)nc3)CC2)c(C(F)F)n1 | + (+ represents myosin activation value AC20 > 5 µM)
3 | Cc1ncc(NC(=O)N2CCC(C(C)(C)S(=O)(=O)c3cn(C)nc3C(F)F)CC2)cn1 | + (+ represents myosin activation value AC20 > 5 µM)
4 | Cn1cc(S(=O)(=O)C(C)(C)C2CCN(C(=O)Nc3cnoc3)CC2)c(C(F)F)n1 | +++ (+++ represents myosin activation value AC20 < 2 µM)
5 | Cn1cc(S(=O)(=O)C(C)(C)C2CCN(C(=O)Nc3ccnnc3)CC2)c(C(F)F)n1 | +++ (+++ represents myosin activation value AC20 < 2 µM)
6 | O=C(Nc1ccnnc1)N1CCC(C(F)(F)S(=O)(=O)c2ccccc2-n2cncn2)CC1 | ++ (++ represents myosin activation value AC20 from 2 µM - 5 µM)
7 | COc1ccc(S(=O)(=O)C(C)(F)C2CCN(C(=O)Nc3ccnnc3)CC2)cn1 (stereo not shown) | +++ (+++ represents myosin activation value AC20 < 2 µM)
8 | COc1ccc(S(=O)(=O)C(C)(F)C2CCN(C(=O)Nc3ccon3)CC2)cn1 (stereo not shown) | ++ (++ represents myosin activation value AC20 from 2 µM - 5 µM)
9 | Cc1cc(S(=O)(=O)C(C)(C)C2CCN(C(=O)Nc3ccncc3)CC2)n(C)n1 | +++ (+++ represents myosin activation value AC20 < 2 µM)
10 | Cn1cc(S(=O)(=O)[C@@](C)(F)C2CCN(C(=O)Nc3cn[nH]c3)CC2)c(C(F)F)n1 | ++ (++ represents myosin activation value AC20 from 2 µM - 5 µM)
11 | CC(C)(C1CCN(C(=O)Nc2ccns2)CC1)S(=O)(=O)c1ccccc1C#N | + (+ represents myosin activation value AC20 > 5 µM)
12 | O=C(Nc1ccnnc1)N1CCC(C(F)(F)S(=O)(=O)c2cccn3ccnc23)CC1 | + (+ represents myosin activation value AC20 > 5 µM)
13 | Cc1cc(NC(=O)N2CCC([C@@](C)(F)S(=O)(=O)c3cn(C)nc3C(F)F)CC2)ccn1 | + (+ represents myosin activation value AC20 > 5 µM)
14 | CC(F)(F)C(C)(C1CCN(C(=O)Nc2ccnnc2)CC1)S(=O)(=O)c1cccc(F)c1 (stereo not shown) | +++ (+++ represents myosin activation value AC20 < 2 µM)
15 | COc1ccc(NC(=O)N2CCC(C(C)(C)S(=O)(=O)c3cccc(F)c3)CC2)cn1 | + (+ represents myosin activation value AC20 > 5 µM)
16 | COc1ccc(S(=O)(=O)[C@](C)(F)C2CCN(C(=O)Nc3ccon3)CC2)cn1 | + (+ represents myosin activation value AC20 > 5 µM)
17 | Cc1cc(NC(=O)N2CCC(C(C)(C)S(=O)(=O)c3cn(C)nc3C(F)F)CC2)cnn1 | + (+ represents myosin activation value AC20 > 5 µM)
18 | CC(F)(C1CCN(C(=O)Nc2ccc(F)nc2)CC1)S(=O)(=O)c1cccc(F)c1 (stereo not shown) | ++ (++ represents myosin activation value AC20 from 2 µM - 5 µM)
19 | Cn1nccc1-c1ccc(S(=O)(=O)C(F)(F)C2CCN(C(=O)Nc3ccnnc3)CC2)cc1 | + (+ represents myosin activation value AC20 > 5 µM)
20 | Cn1nc(C(F)(F)F)cc1S(=O)(=O)C(C)(C)C1CCN(C(=O)Nc2ccnc(F)c2)CC1 | ++ (++ represents myosin activation value AC20 from 2 µM - 5 µM)
21 | Cc1ccc(NC(=O)N2CCC(C(C)(C)S(=O)(=O)c3cc(C(F)F)nn3C)CC2)cn1 | ++ (++ represents myosin activation value AC20 from 2 µM - 5 µM)

Row | Compound | Myosin Activation (AC20)
22 | CC(F)(C1CCN(C(=O)Nc2ccon2)CC1)S(=O)(=O)c1cccc(F)c1 (stereo not shown) | +++ (+++ represents myosin activation value AC20 < 2 µM)
23 | C[C@H](O)c1cc(NC(=O)N2CCC(C(F)(F)S(=O)(=O)c3cn(C)nc3C(F)F)CC2)ccn1 | + (+ represents myosin activation value AC20 > 5 µM)
24 | CC(C)(C1CCN(C(=O)Nc2cnns2)CC1)S(=O)(=O)c1ccc(C(F)(F)F)cc1 | +++ (+++ represents myosin activation value AC20 < 2 µM)
25 | CC(F)(C1CCN(C(=O)Nc2cnns2)CC1)S(=O)(=O)c1ccc(C(F)(F)F)cc1 (stereo not shown) | +++ (+++ represents myosin activation value AC20 < 2 µM)
26 | Cc1cnc(NC(=O)N2CCC(C(C)(C)S(=O)(=O)c3cccc(F)c3)CC2)cn1 | + (+ represents myosin activation value AC20 > 5 µM)
27 | Cn1cc(S(=O)(=O)C(C)(F)C2CCN(C(=O)Nc3ccnc(F)c3)CC2)c(C(F)(F)F)n1 (stereo not shown) | ++ (++ represents myosin activation value AC20 from 2 µM - 5 µM)
28 | Cn1nccc1S(=O)(=O)C(C)(F)C1CCN(C(=O)Nc2cccnc2)CC1 (stereo not shown) | + (+ represents myosin activation value AC20 > 5 µM)
29 | C[C@@H](O)c1cc(NC(=O)N2CCC([C@@](C)(F)S(=O)(=O)c3cn(C)nc3C(F)F)CC2)ccn1 | + (+ represents myosin activation value AC20 > 5 µM)
30 | Cc1ncc(NC(=O)N2CCC(C(C)(C)S(=O)(=O)c3cccc(F)c3)CC2)cn1 | + (+ represents myosin activation value AC20 > 5 µM)
31 | Cn1nc(Cl)cc1S(=O)(=O)C(C)(C)C1CCN(C(=O)Nc2ccnc(F)c2)CC1 | ++ (++ represents myosin activation value AC20 from 2 µM - 5 µM)
32 | CC(C)(C1CCN(C(=O)Nc2ccnnc2)CC1)S(=O)(=O)c1ccc2ccnn2c1 | +++ (+++ represents myosin activation value AC20 < 2 µM)
33 | 4-(1-Fluoro-1-((3-fluorophenyl)sulfonyl)ethyl)-N-(1H-pyrazol-4-yl)piperidine-1-carboxamide | ++ (++ represents myosin activation value AC20 from 2 µM - 5 µM)
34 | Cn1nccc1S(=O)(=O)C(F)(F)C1CCN(C(=O)Nc2ccnnc2)CC1 | + (+ represents myosin activation value AC20 > 5 µM)
35 | Cn1cc(S(=O)(=O)C(C)(C)C2CCN(C(=O)Nc3ccnnc3)CC2)c(Cl)n1 | ++ (++ represents myosin activation value AC20 from 2 µM - 5 µM)
36 | Cc1cnccc1S(=O)(=O)C(F)(F)C1CCN(C(=O)Nc2ccnnc2)CC1 | ++ (++ represents myosin activation value AC20 from 2 µM - 5 µM)
37 | Cn1cc(S(=O)(=O)[C@@](C)(F)C2CCN(C(=O)Nc3ccc(F)nc3)CC2)c(C(F)F)n1 | +++ (+++ represents myosin activation value AC20 < 2 µM)
38 | C[C@@H](O)c1cc(NC(=O)N2CCC(C(F)(F)S(=O)(=O)c3cccc(F)c3)CC2)ccn1 | + (+ represents myosin activation value AC20 > 5 µM)
39 | C[C@@](F)(C1CCN(C(=O)Nc2ccon2)CC1)S(=O)(=O)c1ccc(C(F)(F)F)nc1 | + (+ represents myosin activation value AC20 > 5 µM)
40 | CC(F)(C1CCN(C(=O)Nc2ccnnc2)CC1)S(=O)(=O)c1ccc(C(F)(F)F)cc1 (stereo not shown) | ++ (++ represents myosin activation value AC20 from 2 µM - 5 µM)
41 | O=C(Nc1ccnnc1)N1CCC(C(F)(F)S(=O)(=O)c2ccccc2C(F)F)CC1 | ++ (++ represents myosin activation value AC20 from 2 µM - 5 µM)
42 | Cc1cc(C(F)(F)F)ccc1S(=O)(=O)C(F)(F)C1CCN(C(=O)Nc2ccnnc2)CC1 | ++ (++ represents myosin activation value AC20 from 2 µM - 5 µM)

Row | Compound | Myosin Activation (AC20)
43 | O=C(Nc1ccncc1)N1CCC(C2(S(=O)(=O)c3cccc(F)c3)CCC2)CC1 | +++ (+++ represents myosin activation value AC20 < 2 µM)
44 | C[C@@](F)(C1CCN(C(=O)Nc2ccon2)CC1)S(=O)(=O)c1ccc(OC(F)F)nc1 | + (+ represents myosin activation value AC20 > 5 µM)
45 | Cn1cc(S(=O)(=O)[C@](C)(F)C2CCN(C(=O)Nc3ccon3)CC2)c(C(F)F)n1 | + (+ represents myosin activation value AC20 > 5 µM)
46 | Cn1cc(S(=O)(=O)C(C)(C)C2CCN(C(=O)Nc3nnco3)CC2)c(C(F)F)n1 | + (+ represents myosin activation value AC20 > 5 µM)
47 | CCn1nccc1S(=O)(=O)C(C)(C)C1CCN(C(=O)Nc2ccncc2)CC1 | ++ (++ represents myosin activation value AC20 from 2 µM - 5 µM)
48 | Cn1nc(C(F)F)cc1S(=O)(=O)C(C)(C)C1CCN(C(=O)Nc2ccnnc2)CC1 | +++ (+++ represents myosin activation value AC20 < 2 µM)
49 | Cn1cc(S(=O)(=O)C(C)(F)C2CCN(C(=O)Nc3ccc(F)nc3)CC2)c(C(F)(F)F)n1 (stereo not shown) | + (+ represents myosin activation value AC20 > 5 µM)
50 | O=C(Nc1ccnnc1)N1CCC(C(F)(F)S(=O)(=O)c2ccc(O)cc2Cl)CC1 | ++ (++ represents myosin activation value AC20 from 2 µM - 5 µM)
51 | O=C(Nc1ccnnc1)N1CCC(C2(S(=O)(=O)c3cccc(F)c3)CCC2)CC1 | +++ (+++ represents myosin activation value AC20 < 2 µM)
52 | Cn1nc(C2CC2)cc1S(=O)(=O)C(F)(F)C1CCN(C(=O)Nc2ccnnc2)CC1 | ++ (++ represents myosin activation value AC20 from 2 µM - 5 µM)
53 | Cc1ccc(NC(=O)N2CCC(C(C)(C)S(=O)(=O)c3cn(C)nc3C(F)F)CC2)cn1 | ++ (++ represents myosin activation value AC20 from 2 µM - 5 µM)
54 | Cn1cc(S(=O)(=O)[C@@](C)(F)C2CCN(C(=O)Nc3ccnc(F)c3)CC2)c(C(F)F)n1 | +++ (+++ represents myosin activation value AC20 < 2 µM)
55 | CC(F)(C1CCN(C(=O)Nc2cncc(F)c2)CC1)S(=O)(=O)c1cccc(F)c1 (stereo not shown) | + (+ represents myosin activation value AC20 > 5 µM)
56 | C[C@H](O)c1cc(NC(=O)N2CCC(C(F)(F)S(=O)(=O)c3cccc(F)c3)CC2)ccn1 | + (+ represents myosin activation value AC20 > 5 µM)
57 | Cn1nccc1S(=O)(=O)C(C)(C)C1CCN(C(=O)Nc2ccc(F)nc2)CC1 | + (+ represents myosin activation value AC20 > 5 µM)
58 | O=C(Nc1ccnnc1)N1CCC(C(F)(F)S(=O)(=O)c2ccc(OC(F)(F)F)cc2)CC1 | ++ (++ represents myosin activation value AC20 from 2 µM - 5 µM)
59 | Cc1ccc(NC(=O)N2CCC(C(C)(F)S(=O)(=O)c3cn(C)nc3C(F)(F)F)CC2)cn1 (stereo not shown) | + (+ represents myosin activation value AC20 > 5 µM)
60 | Cn1nc(C(F)(F)F)cc1S(=O)(=O)C(C)(C)C1CCN(C(=O)Nc2ccon2)CC1 | ++ (++ represents myosin activation value AC20 from 2 µM - 5 µM)
61 | C[C@](F)(C1CCN(C(=O)Nc2ccc(C#N)nc2)CC1)S(=O)(=O)c1cccc(F)c1 | ++ (++ represents myosin activation value AC20 from 2 µM - 5 µM)
